Measured melting point values of organic chemicals

From the experimental data distributed with OPERA 2.9.

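These are experimental values that the OPERA curators gathered from public databases to train and test their QSAR models. One number stands for a compound and property, with no spread given. Method and conditions are not stated for these values. A value may pool stereoisomers or salt forms, and the file does not say which form was measured. Some entries may be limits or estimates that an upstream database listed as plain numbers.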

The melting point is given in degrees Celsius.
Cells with "–" have no entry in this list.
"via" names the databases from which the curators took the value.

| mp (°C) | compound | name | via |
|---|---|---|---|
| 161 | O=C1C=CC(=O)N1c1ccc(F)cc1 | 1H-Pyrrole-2,5-dione, 1-(4-fluorophenyl)- | OCHEM |
| 98 | COc1ccc(-c2nc(C=O)cs2)cc1 | 2-(4-methoxyphenyl)-1,3-thiazole-4-carbaldehyde | OCHEM |
| 268 | N#CCc1ccncc1 | 2-(PYRIDIN-4-YL)ACETONITRILE | OCHEM |
| 113 | CC(=O)N1c2ccc(S(=O)(=O)Cl)cc2CC1C (centres undefined) | 1-Acetyl-2-methyl-2,3-dihydro-1H-indole-5-sulfonyl chloride | OCHEM |
| 129 | CSc1ccc(C)c(C(=O)O)c1 | 2-Methyl-5-(methylsulfanyl)benzoic acid | OCHEM |
| 131 | Cc1ccc(S(=O)(=O)N2CCOCC2)cc1N | 2-Methyl-5-(morpholine-4-sulfonyl)aniline | OCHEM |
| 70 | FC(F)(F)c1nnc2ccc(Cl)nn12 | 6-chloro-3-(trifluoromethyl)[1,2,4]triazolo[4,3-b]pyridazine | OCHEM |
| 87 | Cc1ccc(-c2cc(CBr)on2)cc1 | 5-(Bromomethyl)-3-(4-methylphenyl)-1,2-oxazole | OCHEM |
| 136.5 | Cn1cccc1C(=O)O | N-Methylpyrrole-2-carboxylic acid | OCHEM |
| 50 | Cc1ccc2c(C)cc(Cl)nc2c1 | 2-chloro-4,7-dimethylquinoline | OCHEM |
| 242 | CC(=O)c1c(C)oc(N)c1C#N | 4-acetyl-2-amino-5-methyl-3-furonitrile | OCHEM |
| 203 | CN(C)Cc1n[nH]c(=S)o1 | 5-[(Dimethylamino)methyl]-1,3,4-oxadiazole-2(3H)-thione | OCHEM |
| 244 | Cc1nc2ccccc2cc1C(=O)O | 2-Methylquinoline-3-carboxylic acid | OCHEM |
| 160 | O=C(CCl)Nc1ccccc1Sc1ccccc1 | 2-Chloro-N-[2-(phenylsulfanyl)phenyl]acetamide | OCHEM |
| 97 | Cc1cc(C(=O)CCl)c(C)n1-c1cccc(C(F)(F)F)c1 | – | OCHEM |
| 92 | N#CCC(=O)NCCc1ccccc1 | 2-cyano-N-(2-phenylethyl)acetamide | OCHEM |
| 67.5 | CC(O)c1cccc(N)c1 (centres undefined) | 1-(3-Aminophenyl)ethanol | OCHEM |
| 46 | N#CCc1ccc2ccccc2n1 | 2-(quinolin-2-yl)acetonitrile | OCHEM |
| 353 | S=c1[nH]c2cc(Cl)cnc2[nH]1 | 6-Chloro-1,3-dihydro-2H-imidazo[4,5-b]pyridine-2-thione | OCHEM |
| 106 | O=C(CCl)NCCC(c1ccccc1)c1ccccc1 | 2-chloro-N-(3,3-diphenylpropyl)acetamide | OCHEM |
| 268 | CCCCCCCCC=CCCCCCCCCNC(=O)CC(C(=O)[O-])S(=O)(=O)[O-].[Na+].[Na+] (stereo in doubt) | – | eChemPortal |
| 124 | O=C(OCc1ccccc1)N1CCC2(CC1)CNc1ccccc12 | – | OCHEM |
| 86 | Cc1n[nH]c(C)c1C=O | 3,5-dimethyl-1H-pyrazole-4-carbaldehyde | OCHEM |
| 247 | O=C(O)c1cn(-c2ccccc2)nc1-c1ccc(Cl)cc1 | 3-(4-Chlorophenyl)-1-phenyl-1H-pyrazole-4-carboxylic acid | OCHEM |
| 72 | Cc1ccccc1-n1c(C)cc(C=O)c1C | 2,5-Dimethyl-1-(2-methylphenyl)-1H-pyrrole-3-carbaldehyde | OCHEM |
| 171 | Cc1ccc(NC(=N)O)cc1C | N-(3,4-Dimethylphenyl)carbamimidic acid | OCHEM |
| 351.5 | Cn1c(=O)[nH]c2ncn(C)c2c1=O | 1,7-Dimethylxanthine | PubChem |
| 107 | COC(=O)c1cc(N2CCOCC2)ccc1N | Methyl 2-amino-5-(morpholin-4-yl)benzoate | OCHEM |
| 77 | FC(F)(F)C(F)(F)C(F)(F)C(F)(F)C(F)(F)C(F)(F)C(F)(F)C(F)(F)CC1CO1 (centres undefined) | 3-(Perfluorooctyl)-1,2-propenoxide | ChemicalBook |
| 104 | NC(=O)CC(N)=S | 3-amino-3-thioxopropanamide | OCHEM |
| 244 | COC(=O)c1ccc(I)c(Br)c1 | Methyl 3-bromo-4-iodobenzoate | OCHEM |
| 179 | NNC(=O)Cc1nc2ccccc2[nH]1 | 2-(1H-Benzimidazol-2-yl)acetohydrazide | OCHEM |
| 238 | Cc1n[nH]c(NN)nc1=O | 3-hydrazino-6-methyl-1,2,4-triazin-5-ol | OCHEM |
| 78 | C=CCNc1nc2c(s1)CCCC2 | – | OCHEM |
| 22 | CCCCCCCCCCCCCCCCCC(=O)OCC1CCCO1 (centres undefined) | Tetrahydrofurfuryl stearate | OCHEM |

Excerpt, the final 4 entries:

| compound | name | mp (°C) | via |
|---|---|---|---|
| NNC(=O)Cc1nc2ccccc2[nH]1 | 2-(1H-Benzimidazol-2-yl)acetohydrazide | 179 | OCHEM |
| Cc1n[nH]c(NN)nc1=O | 3-hydrazino-6-methyl-1,2,4-triazin-5-ol | 238 | OCHEM |
| C=CCNc1nc2c(s1)CCCC2 | – | 78 | OCHEM |
| CCCCCCCCCCCCCCCCCC(=O)OCC1CCCO1 (centres undefined) | Tetrahydrofurfuryl stearate | 22 | OCHEM |